# Assay results taken from PubChem BioAssay (Tox21).
# By UniProt entry, the sequences of proteins in these tests, tags left out.
# UniProt Q969F8, whole entry: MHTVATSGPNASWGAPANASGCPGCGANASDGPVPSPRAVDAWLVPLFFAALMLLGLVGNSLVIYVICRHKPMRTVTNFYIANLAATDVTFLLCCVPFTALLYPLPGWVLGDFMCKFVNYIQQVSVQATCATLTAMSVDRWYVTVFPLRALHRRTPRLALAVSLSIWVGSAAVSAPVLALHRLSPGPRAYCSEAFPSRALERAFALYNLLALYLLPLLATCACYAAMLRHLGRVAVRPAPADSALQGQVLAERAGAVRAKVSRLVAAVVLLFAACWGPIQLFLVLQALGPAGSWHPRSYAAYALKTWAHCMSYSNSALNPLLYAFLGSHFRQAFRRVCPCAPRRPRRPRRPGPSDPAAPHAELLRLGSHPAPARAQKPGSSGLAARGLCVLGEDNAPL
# The list shows a part of the results, in another mix than the full data. Active and inactive are the calls of the source. The call rests on the fitted dose curve; in most records, active means well fitted activation curve with a large enough effect in the repeat runs; inconclusive means weak or mixed curves; inactive means flat fitted curve, though single readings scatter. A call without a number means that no potency is given here.
# Target: KiSS-1 receptor (Homo sapiens) (UniProt Q969F8)
# Assay: Human kisspeptin (KISS1R) small molecule agonists, calcium flux assay in KISS1R-HEK293 cells (AID 1920064)
# Conditions: KISS1R-HEK293, calcium flux fluorescence, agonist; series mostly up to 76.8 µM
# From the text: National Center for Advancing Translational Sciences [NCATS]
# Division of Preclinical Innovation [DPI]
# U.S. Environmental Protection Agency [EPA]
# National Institutes of Environmental Health Sciences [NIEHS]
# National Toxicology Program [NTP]
# U.S. Food and Drug Administration [FDA]
# Kisspeptin and its receptor KISS1R play key roles in mammalian reproduction due to their involvement in the onset of puberty and control of the hypothalamic-pituitary-gonadal axis such as regulates GnRH release from the hypothalamus. The kisspeptin/KISS1R system also plays a direct role in peripheral organs (including the ovary, testis, uterus, and placenta) and is implicated in reproductive diseases such as miscarriage and polycystic ovary syndrome (PCOS). Abnormal KISS1R activity is associated with abnormal puberty, infertility, endometriosis, and hormone-dependent tumors. The KISS1 receptor (KISS1R, also called GPR54), a G-protein-coupled receptor (GPCR), acts (through phospholipase C) to increase intracellular inositol trisphosphate and then release intracellular calcium stores. Cell-based KISS1R-HEK293 assay is using HEK293 cells that have been genetically engineered to express the human KISS1R, which activity can be measured by calcium signaling. A compound/drug can activate (agonist) KISS1R that can be monitored by levels of intracellular calcium.
# KISS1R-HEK293 cells developed by Codex Corp contain human KISS1R gene, which was stably integrated into HEK 293 cells. The compound activation can be detected by fluorescence intensity via calcium flux assay. This cell line has been used to screen the Tox21 10K compound library to identify agonists of KISS1R.
# KISS1R-Hek293 cells were dispensed at 1500 cells/4uL/well in 1536-well black wall/clear bottom plates using a multidrop dispenser. After the assay plates were incubated at a 37 C/5% CO2 incubator for 18 hours, 4 microL of Calcium Dye Solution was added to each well. The plates were incubated at 37 C for 1 hour. And then 23 nL of compounds dissolved in DMSO, positive controls, or DMSO only was transferred to the assay plate by a pin tool station. The fluorescence intensity in the plates was measured using FDSS 7000EX kinetic plate reader with a filter set of Ex/Em=480/540 for 3 min at 1 sec intervals. Each test compound was measured at 15 concentrations and in triplicates.
row,Compound,Potency
1,CCOP(=O)(CC)Oc1ccc([N+](=O)[O-])cc1 (stereo not given),inactive
2,COP(C)(=O)OC,inactive
3,OCCSCCO,inactive
4,Cc1cccc([N+](=O)[O-])c1[N+](=O)[O-],inactive
5,N=C(N)N[N+](=O)[O-],inactive
6,CCOP(=O)(CC)OCC,inactive
7,CC(C)N(CCO)C(C)C,inactive
8,Cc1c([N+](=O)[O-])cccc1[N+](=O)[O-],inactive
9,O=[N+]([O-])c1cccc([N+](=O)[O-])c1,inactive
10,Nc1cc([N+](=O)[O-])cc([N+](=O)[O-])c1O,inactive
11,N#CBr,inactive
12,O=[N+]([O-])[O-].[NH4+],inactive
13,CCN(CC)CCCl,inactive
14,CP(=O)(O)OCCC[Si](O)(O)O,inactive
15,CC(C)OP(C)(=O)OC(C)C,inactive
16,Cc1ccc([N+](=O)[O-])cc1[N+](=O)[O-],inactive
17,O=[N+]([O-])OCC(CO[N+](=O)[O-])(CO[N+](=O)[O-])CO[N+](=O)[O-],inactive
18,C/C1=C2N=C(/C=C3N=C(/C(C)=C4\[N-][C@@](C)([C@@H]5N=C1[C@](C)(CCC(=O)NC[C@@H](C)OP(=O)([O-])O[C@H]1[C@@H](O)[C@@H](n6cnc7cc(C)c(C)cc76)O[C@@H]1CO)[C@H]5CC(N)=O)[C@@](C)(CC(N)=O)[C@@H]4CCC(N)=O)[C@@](C)(CC(N)=O)[C@@H]\3CCC(N)=O)C(C)(C)[C@@H]/2CCC(N)=O.[C-]#N.[Co+3],inactive
19,CN(C)CCCl,inactive
20,[NH4+].[O-][Cl+3]([O-])([O-])[O-],inactive
